Article PMC11463559 (bioRxiv, 2024)

Tests used:
AT1R-LgBiT [1] = biological target: AT1R-LgBiT (UniProt P30556); assay: split reporter
AT1R-LgBiT [2] = biological target: AT1R-LgBiT (UniProt P30556); assay: split reporter; remark: listed apart in the source

B1: SmBiT-β-arrestin 1 (natural protein, rat, UniProt P29066 1-418, looked up)
chain: MGDKGTRVFKKASPNGKLTVYLGKRDFVDHIDLVDPVDGVVLVDPEYLKERRVYVTLTCAFRYGREDLDVLGLTFRKDLFVANVQSFPPAPEDKKPLTRLQERLIKKLGEHAYPFTFEIPPNLPCSVTLQPGPEDTGKACGVDYEVKAFCAENLEEKIHKRNSVRLVIRKVQYAPERPGPQPTAETTRQFLMSDKPLHLEASLDKEIYYHGEPISVNVHVTNNTNKTVKKIKISVRQYADICLFNTAQYKCPVAMEEADDTVAPSSTFCKVYTLTPFLANNREKRGLALDGKLKHEDTNLASSTLLREGANREILGIIVSYKVKVKLVVSRGGLLGDLASSDVAVELPFTLMHPKPKEEPPHREVPESETPVDTNLIELDTNDDDIVFEDFARQRLKGMKDDKDEEDDGTGSPHLNNR
- logEC50 of the agonist TRV023 for recruitment (AT1R-LgBiT [1]): -7.66 log M
- logEC50 of the agonist AngII for recruitment (AT1R-LgBiT [2]): -9.13 log M
